We go through two substances from patent publication US20150165000A1, “COMPOSITION FOR THERMOSTABILIZATION OF HUMAN SERUM ALBUMIN AND METHOD OF PREPARING THERMALLY STABILIZED HUMAN SERUM ALBUMIN USING THE SAME” (Ewha University - Industry Collaboration Foundation, priority 2012, published 2015).

In data set [1] the target is T1, human serum albumin (Homo sapiens, UniProt P02768).
T1 construct: the single supply source of human serum albumin is currently the blood of humans; purchased Sigma-Aldrich A3782
As to the kind of experiment: Structural stability against thermal treatment: secondary structure composition from circular dichroism. In kind it is physicochemical. Particulars: albumin 1 mg/mL. As for the experimental part:
The composition of the secondary structure of protein may be estimated using circular dichroism, and thus changes in structure of the thermally denatured protein may be measured.
Measurement of circular dichroism was performed three times under conditions of a data pitch of 0.2 nm, a band width of 1.0 nm, a response time of 4 sec, and a scanning speed of 50 nm/min using a quartz cuvette having a path length of 0.1 cm by use of Jasco J-715 spectropolarimeter. The composition of the secondary structure was assayed from the measured circular dichroism values using SELCON3 program contained in the Dicroprot program.
A general note: Circular dichroism is the unequal absorption of left and right circularly polarised light.

In data set [2] the target is T1, human serum albumin. Nature of the data set: Thermal denaturation of human serum albumin solution: check of precipitation during heating. The data set is classed as physicochemical. Particulars: for precipitation check / endurable time duration of the prolonged processing / time after which precipitation began to form: albumin 50 mg/mL. The method, then: Thus, the present inventors estimated oleic acid affecting stability depending on the temperature. […] Specifically, while the temperature was maintained at 65° C., 70° C. and 75° C., whether the precipitation was formed due to denaturation of protein was checked at intervals of 30 min, 5 min and 3 min, respectively.
Thermostabilizing effects were evaluated at 70° C. using other C18 fatty acids including stearic acid, linoleic acid, α-linolenic acid and γ-linolenic acid, as well as oleic acid, in the same manner as in Example 6.1. for testing of stability against denaturation due to thermal treatment using oleic acid.
Thermostabilizing effects at 65° C. were evaluated using C16 fatty acids including palmitic acid and palmitoleic acid, as well as oleic acid as the C18 fatty acid, in the same manner as in Examples 6.1. and 6.2. for testing of stability against degeneration due to thermal treatment using various C18 fatty acids including oleic acid. The samples were warmed to 65° C. and observed at an interval of 5 min.
Thermostabilizing effects at 65° C. were evaluated using EPA (eicosapentaenoic acid) and DHA (docosahexanoic acid) as C20 and C22 fatty acids, as well as oleic acid as the C18 fatty acid, in the same manner as in Examples 6.1. to 6.3. for testing of stability against denaturation due to thermal treatment using various C16 and C18 fatty acids.

Take “A1653 Albumin: A1653 albumin (Sigma), human serum albumin sample”: in the data set with human serum albumin [1] (heated at 60° C. for 10 hr), the “Turn (composition of the secondary structure)” value (shortened to “Turn”) turned out to be 0.105, the “Unordered (composition of the secondary structure)” value (from here on “Unordered”) turned out to be 0.311, the “poly(Pro)II (composition of the secondary structure)” value (from here on “poly(Pro)II”) was 0.042 and the “α-Helix (composition of the secondary structure)” value (“α-Helix” below) came out at 0.481. The “β-sheet (composition of the secondary structure)” value (shortened to “β-sheet”) with human serum albumin [1] (heated at 60° C. for 10 hr) turned out to be 0.072. Also, in the data set with human serum albumin [1] (heated at 70° C. for 10 hr), the “Turn” value turned out to be 0.144, the “Unordered” value was determined as 0.369, the “poly(Pro)II” value was 0.055 and the “α-Helix” value is listed as 0.330. Further, the “β-sheet” value with human serum albumin [1] (heated at 70° C. for 10 hr) was determined as 0.124. Besides, in the data set with human serum albumin [1] (heated at 80° C. for 10 hr), the “Turn” value is 0.149, the “Unordered” value came to 0.390, the “poly(Pro)II” value was found to be 0.054 and the “α-Helix” value stood at 0.270. The “β-sheet” value with human serum albumin [1] (heated at 80° C. for 10 hr) is reported as 0.127.
Turning to “Albumin (Control): fatty acid-free human serum albumin (A3782, Sigma-Aldrich) solution not processed with fatty acid”, the “Turn” value with human serum albumin [1] (heated at 60° C. for 10 hr) was 0.133; with human serum albumin [1] (heated at 70° C. for 10 hr), 0.141; in the data set with human serum albumin [1] (heated at 80° C. for 10 hr), 0.178. The “Unordered” value in the data set with human serum albumin [1] (heated at 60° C. for 10 hr) is 0.379; with human serum albumin [1] (heated at 70° C. for 10 hr), 0.378; with human serum albumin [1] (heated at 80° C. for 10 hr) it was 0.432. Besides, the “poly(Pro)II” value came to 0.052 in the data set with human serum albumin [1] (heated at 60° C. for 10 hr), 0.053 with human serum albumin [1] (heated at 70° C. for 10 hr) and 0.043 with human serum albumin [1] (heated at 80° C. for 10 hr). Further, the “α-Helix” value in the data set with human serum albumin [1] (heated at 60° C. for 10 hr) was determined as 0.308; with human serum albumin [1] (heated at 70° C. for 10 hr), 0.309; in the data set with human serum albumin [1] (heated at 80° C. for 10 hr) it was 0.217. For the same substance, the “β-sheet” value in the data set with human serum albumin [1] (heated at 60° C. for 10 hr) is 0.130; in the data set with human serum albumin [1] (heated at 70° C. for 10 hr), 0.107; in the data set with human serum albumin [1] (heated at 80° C. for 10 hr), 0.143. The precipitation check result is reported as “◯” with human serum albumin [2] (65° C., 5 min, Example 6.3); “◯” in the data set with human serum albumin [2] (65° C., 5 min, Example 6.4); “◯” with human serum albumin [2] (65° C., 10 min, Example 6.3); “◯” with human serum albumin [2] (65° C., 10 min, Example 6.4); “◯” with human serum albumin [2] (70° C., 3 min, Example 6.2); “◯” with human serum albumin [2] (70° C., 5 min, Example 6.1). In addition, the precipitation check result with human serum albumin [2] (75° C., 3 min, Example 6.1) is “◯”. In addition, the “endurable time duration of the prolonged processing” value is recorded as 60 min with human serum albumin [2] (65° C.) and 9 min with human serum albumin [2] (75° C.). For the same substance, the “time after which precipitation began to form” value with human serum albumin [2] (65° C., Example 6.1) was 30 min; with human serum albumin [2] (70° C., Example 6.1) it was 10 min. Further, the “endurable time duration, log unit (log65° C.)” value in the data set with human serum albumin [2] (65° C., log of minutes) was found to be 1.78. The “endurable time duration, log unit (log70° C.)” value in the data set with human serum albumin [2] (70° C., log of minutes) stood at 1.18. Further, in the data set with human serum albumin [2] (75° C., log of minutes), the “endurable time duration, log unit (log75° C.)” value is 0.95.
